# Source: patent US4649139A, “1,2,4-triazines” (Burroughs Wellcome Co., priority 1983, dated 1987)
# Assay: in vivo
# Details: rat
structure (smiles),measurement,setting,value
"CC(C)n1nc(-c2cccc(Cl)c2Cl)c(N)nc1=N [Example 4, 5(3)-Amino-6-(2,3-dichlorophenyl)-2,3(2,5)-dihydro-3(5)-imino-2-isopropyl-1,2,4-triazine]",LD50,iv,8.34 mg/kg
same,LD50,sc,25.5 mg/kg
